{"sequences": {"note": "The chains behind the UniProt entries cited, without tags or fusion partners.", "UniProt P34969, whole entry": "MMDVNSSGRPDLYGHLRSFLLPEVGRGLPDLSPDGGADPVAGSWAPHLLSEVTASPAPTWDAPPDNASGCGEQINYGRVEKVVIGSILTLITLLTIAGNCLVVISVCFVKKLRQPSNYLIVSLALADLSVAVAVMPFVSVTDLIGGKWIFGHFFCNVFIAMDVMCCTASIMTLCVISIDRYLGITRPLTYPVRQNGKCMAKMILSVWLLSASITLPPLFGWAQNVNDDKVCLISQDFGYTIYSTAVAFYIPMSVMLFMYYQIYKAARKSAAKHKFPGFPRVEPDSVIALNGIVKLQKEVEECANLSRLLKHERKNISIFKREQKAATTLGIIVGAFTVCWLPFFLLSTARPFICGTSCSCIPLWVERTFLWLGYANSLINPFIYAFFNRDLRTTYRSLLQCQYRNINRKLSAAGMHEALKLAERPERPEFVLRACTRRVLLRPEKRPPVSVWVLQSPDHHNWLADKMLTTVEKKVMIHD"}, "source": "paper PMC3052287", "about": "(Psychopharmacology, 2010)", "key": {"h5-HT7 receptor [1]": {"biological_target": "T1, h5-HT7 receptor (Homo sapiens, UniProt P34969)", "settings": "cited from earlier work"}, "h5-HT7 receptor [2]": {"biological_target": "T1, h5-HT7 receptor"}, "h5-HT7 receptor [3]": {"biological_target": "T1, h5-HT7 receptor", "settings": "cited from earlier work", "remark": "listed apart in the source"}}, "data": [{"substance": "methiothepin", "values": [{"measurement": "share of h5-HT7 binding sites bound in a wash-resistant manner", "setting": "h5-HT7 receptor [1]", "result": "all the h5-HT7 receptors"}, {"measurement": "wash-resistant inhibition of [3H]5-HT binding", "setting": "h5-HT7 receptor [2]", "result": "all of the binding"}, {"measurement": "inactivation of the h5-HT7 receptor (loss of 5-HT-stimulated cAMP accumulation)", "setting": "h5-HT7 receptor [3]", "result": "inactivate the h5-HT7 receptor"}]}]}
